Results on one molecule are retold here after ChEMBL document CHEMBL1141881, “Modeling the similarity and divergence of dopamine D2-like receptors and identification of validated ligand-receptor complexes” (J Med Chem, 2005).

Protein sequences, listed by entry. Tags and fused reporters are not part of them.
UniProt P21917, whole entry: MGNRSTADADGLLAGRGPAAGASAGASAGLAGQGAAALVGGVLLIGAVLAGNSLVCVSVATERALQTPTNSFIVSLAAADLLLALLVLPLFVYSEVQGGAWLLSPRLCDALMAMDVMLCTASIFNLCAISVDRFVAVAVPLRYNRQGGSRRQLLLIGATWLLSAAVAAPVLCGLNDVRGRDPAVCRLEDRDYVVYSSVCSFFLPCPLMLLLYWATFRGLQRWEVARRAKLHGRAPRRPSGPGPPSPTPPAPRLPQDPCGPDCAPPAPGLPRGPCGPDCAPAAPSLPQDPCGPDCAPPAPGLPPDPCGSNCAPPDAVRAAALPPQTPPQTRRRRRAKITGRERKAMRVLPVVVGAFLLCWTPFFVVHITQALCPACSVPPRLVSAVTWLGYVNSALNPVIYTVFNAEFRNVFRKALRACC

The target in this assay is D(4) dopamine receptor (Homo sapiens, UniProt P21917).

`CCN1CCC[C@H]1CNC(=O)c1cc(S(N)(=O)=O)ccc1OC` [SULPIRIDE]: the Ki (commonly the dissociation constant of the complex between target and ligand, obtained from inhibition or displacement) stood at 2100 nM.
